{
  "sequences": {"note": "By UniProt entry, the sequences of proteins in these tests, tags left out. Where a name states a change or a piece, a line headed by the entry shows the natural chain unless it says otherwise.", "UniProt P32300, whole entry": "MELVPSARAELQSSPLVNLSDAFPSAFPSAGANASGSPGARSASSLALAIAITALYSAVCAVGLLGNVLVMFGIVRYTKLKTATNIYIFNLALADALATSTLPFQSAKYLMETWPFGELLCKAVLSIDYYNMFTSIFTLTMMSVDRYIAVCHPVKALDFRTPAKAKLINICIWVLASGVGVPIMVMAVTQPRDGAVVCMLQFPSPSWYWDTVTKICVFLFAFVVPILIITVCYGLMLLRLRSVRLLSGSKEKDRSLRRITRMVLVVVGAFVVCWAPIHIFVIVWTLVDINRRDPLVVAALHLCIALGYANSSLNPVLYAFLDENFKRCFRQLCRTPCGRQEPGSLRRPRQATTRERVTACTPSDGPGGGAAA"},
  "source": "paper PMC137588",
  "about": "(BMC Neuroscience, 2002)",
  "target": "mouse δ opioid receptor (Mus musculus, UniProt P32300)",
  "test": "biochemical",
  "type": "binding",
  "data": [
    {"smiles": "C=CCN1CC[C@]23c4c5ccc(O)c4O[C@H]2[C@@H](O)C=C[C@H]3[C@H]1C5", "note": "[Nalorphine]", "values": [
      {"measurement": "Ki", "result": "38.5 ± 4", "unit": "nM"}
    ]}
  ]
}
